pKi: −log10 of the molar value.
Molecular target: T1, Neutrophil elastase (Homo sapiens, UniProt P08246)
T1 sequence (P08246 whole entry): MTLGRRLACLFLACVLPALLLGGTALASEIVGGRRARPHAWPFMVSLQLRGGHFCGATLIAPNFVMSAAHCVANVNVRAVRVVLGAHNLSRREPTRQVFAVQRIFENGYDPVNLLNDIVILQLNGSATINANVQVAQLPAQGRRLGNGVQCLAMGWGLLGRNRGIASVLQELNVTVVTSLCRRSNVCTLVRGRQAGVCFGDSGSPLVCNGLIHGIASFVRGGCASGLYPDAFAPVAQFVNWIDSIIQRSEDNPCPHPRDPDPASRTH
Test: Inhibition of human leukocyte elastase

SMILES: CC(C)(C)C(=O)Oc1ccc(S(=O)(=O)Nc2ccccc2C(=O)NCC(=O)O)cc1 [SIVELESTAT]
- pKi: 7.43

Reference: ChEMBL document CHEMBL4251738, “A BODIPY-Tagged Phosphono Peptide as Activity-Based Probe for Human Leukocyte Elastase” (ACS Med Chem Lett, 2018)
